The target of experiment [1] is 5-hydroxytryptamine receptor 5A (Homo sapiens, UniProt P47898). Description: Binding affinity to 5-HT5A receptor (unknown origin) assessed as inhibition constant.
In experiment [2] the target is Alpha-2B adrenergic receptor (Homo sapiens, UniProt P18089). Nature of the experiment: Binding affinity to alpha2B receptor (unknown origin) assessed as inhibition constant.
Experiment [3] addresses Kappa-type opioid receptor (Homo sapiens, UniProt P41145). Description: Binding affinity to KOR receptor (unknown origin) assessed as inhibition constant.

Sequences of proteins named here, by UniProt entry; tags and fusion partners are left off. A change or cut given only in a name is not applied to a line headed by its entry.
UniProt P47898, whole entry: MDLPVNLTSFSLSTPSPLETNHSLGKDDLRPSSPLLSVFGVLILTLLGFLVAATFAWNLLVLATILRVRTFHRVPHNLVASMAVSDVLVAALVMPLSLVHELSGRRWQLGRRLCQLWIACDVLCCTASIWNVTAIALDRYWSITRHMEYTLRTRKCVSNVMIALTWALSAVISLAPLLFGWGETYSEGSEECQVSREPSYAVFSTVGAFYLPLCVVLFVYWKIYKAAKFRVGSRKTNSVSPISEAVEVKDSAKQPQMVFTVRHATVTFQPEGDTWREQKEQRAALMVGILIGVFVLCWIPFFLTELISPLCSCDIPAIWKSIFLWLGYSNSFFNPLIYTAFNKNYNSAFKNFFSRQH
UniProt P18089, whole entry: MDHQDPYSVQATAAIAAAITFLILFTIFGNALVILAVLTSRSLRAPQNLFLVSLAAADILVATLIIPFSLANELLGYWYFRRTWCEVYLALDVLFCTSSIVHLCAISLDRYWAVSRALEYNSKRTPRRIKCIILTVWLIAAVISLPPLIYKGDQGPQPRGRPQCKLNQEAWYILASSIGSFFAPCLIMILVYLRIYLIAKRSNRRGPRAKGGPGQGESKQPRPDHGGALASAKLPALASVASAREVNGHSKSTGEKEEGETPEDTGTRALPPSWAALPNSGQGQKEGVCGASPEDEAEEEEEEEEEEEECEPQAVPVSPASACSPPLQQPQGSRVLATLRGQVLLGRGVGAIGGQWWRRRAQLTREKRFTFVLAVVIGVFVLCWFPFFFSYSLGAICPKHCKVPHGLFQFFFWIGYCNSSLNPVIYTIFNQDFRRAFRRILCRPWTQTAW
UniProt P41145: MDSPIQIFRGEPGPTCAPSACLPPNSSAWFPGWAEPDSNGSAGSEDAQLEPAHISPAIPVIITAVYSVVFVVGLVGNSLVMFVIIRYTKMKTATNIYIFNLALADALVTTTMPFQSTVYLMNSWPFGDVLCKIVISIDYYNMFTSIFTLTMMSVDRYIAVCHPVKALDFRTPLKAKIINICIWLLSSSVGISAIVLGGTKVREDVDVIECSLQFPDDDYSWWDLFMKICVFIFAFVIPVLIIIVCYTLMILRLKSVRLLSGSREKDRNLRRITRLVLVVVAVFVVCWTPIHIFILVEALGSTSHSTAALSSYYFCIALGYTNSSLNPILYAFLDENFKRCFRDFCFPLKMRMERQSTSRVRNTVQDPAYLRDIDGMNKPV

pKi: −log10 of the molar value.

One may read the pKi as the Ki on a negative log10 scale, so that one unit is a factor of ten. For the compound `CCN(CC)CCCC(C)Nc1cnc(C(=O)Nc2ccc(Cl)c3cccnc23)cn1` (stereo not drawn), the pKi in experiment [1] was 5.93; in experiment [2] it was 5.95; in experiment [3] it was 5.96.

Source of the values: ChEMBL document CHEMBL5316327, “Design and Synthesis of Orally Active Quinolyl Pyrazinamides as Sigma 2 Receptor Ligands for the Treatment of Pancreatic Cancer” (J Med Chem, 2023).
